Assays:
human FPR2 = human FPR2 (Homo sapiens (Human), UniProt P25090); experiment: FPR2 cyclic adenosine monophosphate (cAMP) assay; details: read-out: hFPR2 cAMP2 EC50; CHO cells overexpressing human FPR2; forskolin 5 μM, IBMX 200 μM; inhibition of cAMP production, HTRF
human FPR1 = human FPR1 (Homo sapiens (Human), UniProt P21462); experiment: FPR1 cyclic adenosine monophosphate (cAMP) assay; details: read-out: hFPR1 cAMP EC50; CHO cells overexpressing human FPR1; forskolin 10 μM, IBMX 200 μM; inhibition of cAMP production, HTRF

Amino acid sequences for entries named in this document (tags omitted).
UniProt P25090, whole entry: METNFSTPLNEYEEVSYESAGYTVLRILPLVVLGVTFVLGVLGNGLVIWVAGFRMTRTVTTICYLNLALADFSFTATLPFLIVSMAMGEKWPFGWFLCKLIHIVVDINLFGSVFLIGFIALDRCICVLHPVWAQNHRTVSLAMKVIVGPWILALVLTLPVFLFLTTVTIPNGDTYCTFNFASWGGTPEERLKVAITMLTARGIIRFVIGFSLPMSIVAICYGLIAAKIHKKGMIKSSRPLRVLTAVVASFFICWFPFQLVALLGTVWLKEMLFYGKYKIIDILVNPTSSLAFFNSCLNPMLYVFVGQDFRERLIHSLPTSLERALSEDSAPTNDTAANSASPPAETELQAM
UniProt P21462, whole entry: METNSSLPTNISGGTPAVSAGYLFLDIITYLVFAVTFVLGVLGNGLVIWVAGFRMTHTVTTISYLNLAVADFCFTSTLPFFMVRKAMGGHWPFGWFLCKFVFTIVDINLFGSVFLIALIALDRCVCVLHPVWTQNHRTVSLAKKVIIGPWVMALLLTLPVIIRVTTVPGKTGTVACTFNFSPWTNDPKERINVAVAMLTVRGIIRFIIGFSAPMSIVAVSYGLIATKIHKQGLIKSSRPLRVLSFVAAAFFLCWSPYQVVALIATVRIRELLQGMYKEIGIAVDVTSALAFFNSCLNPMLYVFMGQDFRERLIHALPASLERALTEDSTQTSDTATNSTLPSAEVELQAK

| Compound | EC50 (human FPR2) | EC50 (human FPR1) |
| --- | --- | --- |
| COc1cc(F)c([C@@H]2CN(c3cccn(CCO)c3=O)C(=O)[C@H]2NC(=O)NC2CCc3cc(OC)ccc3C2(C)C)c(F)c1 (some centres unmarked) | 4.8 nM | 21 nM |
| COCC(CO)n1cccc(N2C[C@@H](c3c(F)cc(OC)cc3F)[C@H](NC(=O)N[C@H]3CC[C@H](C(F)F)CC3)C2=O)c1=O (single isomer, unassigned) [106] | 23 nM | 1700 nM |
| COCC(CO)n1cccc(N2C[C@@H](c3c(F)cc(OC)cc3F)[C@H](NC(=O)N[C@H]3CC[C@H](C(F)F)CC3)C2=O)c1=O (single isomer, unassigned) [107] | 28 nM | 2800 nM |
| COc1cc(F)c([C@@H]2CN(c3cccn(CCO)c3=O)C(=O)[C@H]2NC(=O)NC2CCc3cc(OC)ccc3C2)c(F)c1 (some centres unmarked) [Example 21] | 2.6 nM | 10 nM |
| COc1cc(F)c([C@@H]2CN(c3ncccc3C(F)(F)F)C(=O)[C@H]2NC(=O)NC2CCc3ccccc3C2)c(F)c1 (some centres unmarked) [Example 24] | 0.7 nM | 0.5 nM |
| COCCn1cccc(N2C(=O)[C@@H](NC(=O)NC3CCc4cc(Cl)ccc4C3)[C@H](c3c(F)cc(OC)cc3F)[C@@H]2C)c1=O (some centres unmarked) [Example 27] | – | 54 nM |
